System: BCR-ABL ALL cells
Experiment: survival of mice transplanted with BCR-ABL ALL cells
Type: in vivo
Method: Experimental procedures were approved by the Animal Care and Use Committee of Shanghai Institute of Biochemistry and Cell Biology, Chinese Academy of Sciences. In all, 200 wild-type C57BL/6 mice (6 weeks old, female) were used for determining maximally tolerated dose of CY, and testing CY and other drugs' efficacy in the BCR-ABL ALL model. […] At 7 days postinjection, mice were treated with indicated drugs at their MTDs. Mice were monitored daily for survival after drug treatment. Survival curve and statistical analysis were done using the Prism software. For xenograft H460 model, in all, nude mice (8 weeks old, female) were used to test CY and bendamustine's in vivo efficacy. The numbers of mice used in each experimental group are labeled on Fig4.

Cc1nc(Nc2ncc(C(=O)Nc3c(C)cccc3Cl)s2)cc(N2CCN(CCO)CC2)n1 [dasatinib]
survival extension, daily doses: up to 2 months
